Experimental data as given in PMC6273072, “Identification of a New Morpholine Scaffold as a P2Y12 Receptor Antagonist” (Molecules, 2016).

Amino acid sequences for entries named in this document (tags omitted).
UniProt Q9H244, whole entry: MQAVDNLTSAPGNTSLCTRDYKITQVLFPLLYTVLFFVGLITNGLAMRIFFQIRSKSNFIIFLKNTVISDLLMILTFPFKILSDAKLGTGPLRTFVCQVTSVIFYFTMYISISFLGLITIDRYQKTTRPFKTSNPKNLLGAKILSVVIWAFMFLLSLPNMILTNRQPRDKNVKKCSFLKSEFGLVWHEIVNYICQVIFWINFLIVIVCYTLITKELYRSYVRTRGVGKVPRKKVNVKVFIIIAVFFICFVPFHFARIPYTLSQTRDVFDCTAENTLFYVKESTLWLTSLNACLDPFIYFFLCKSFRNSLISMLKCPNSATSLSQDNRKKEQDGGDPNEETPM

Molecular target: rhP2Y12 receptor (Homo sapiens, UniProt Q9H244)
Assay: rhP2Y12 receptor binding assay with [3H]-2-MeSADP (HEK293T membranes)
Details: read-out: Kd of radioligand at rhP2Y12 (saturation, Scatchard); [3H]-2-MeSADP saturation binding; tested as the radiolabelled form

CSc1nc(N)c2ncn([C@@H]3O[C@H](COP(=O)(O)OP(=O)(O)O)[C@@H](O)[C@H]3O)c2n1 [Compound 2-MeSADP, reference compound]
Kd: 3.74 nM
